{"sequences": {"note": "The chains behind the UniProt entries cited, without tags or fusion partners. Residues count along the entry.", "UniProt P14174, 2-115 limits assumed": "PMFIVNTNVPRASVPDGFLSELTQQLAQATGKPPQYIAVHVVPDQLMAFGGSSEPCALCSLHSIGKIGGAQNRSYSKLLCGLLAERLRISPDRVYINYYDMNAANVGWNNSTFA"}, "source": "patent US8742173B2", "about": "“Phenolic hydrazone macrophage migration inhibitory factor inhibitors” (The Feinstein Institute for Medical Research, priority 2006, dated 2014)", "biological_target": "MIF (Homo sapiens, UniProt P14174)", "assay": "Spectrophotometric assay of MIF tautomerase activity on L-dopachrome methyl ester", "type": "biochemical", "settings": "read-out: IC50 for inhibition of MIF tautomerase activity; Table 1; L-dopachrome methyl ester substrate", "data": [{"smiles": "Oc1ccc(/C=N/Nc2ccccc2)cc1F", "values": [{"measurement": "IC50", "value": 1.5, "unit": "µM"}]}]}
